According to patent US20230192765A1, “PEPTIDES TARGETING SHP2 AND USES THEREOF” (UNIVERSITÀ DEGLI STUDI DI ROMA "TOR VERGATA", priority 2020, published 2023):

Test system: NIH3T3 cells
Experiment: Cell uptake experiments (FACS)

## CC[C@H](C)[C@H](NC(=O)[C@H](Cc1ccc(OP(=O)(O)O)cc1)NC(=O)[C@H](CC(N)=O)NC(=O)[C@H](CC(C)C)NC(=O)CNC(=O)c1ccc2c(c1)C(=O)OC21c2ccc(O)cc2Oc2cc(O)ccc21)C(=O)N[C@@H](CC(=O)O)C(=O)N[C@@H](CC(C)C)C(=O)N[C@@H](CC(=O)O)C(=O)N[C@@H](Cc1c[nH]c2ccccc12)C(N)=O
Mixed with Pep1 CPP
  cell uptake, non-covalent strategy: efficiently obtained
No CPP, 120 minutes
  spontaneous cell uptake: minimal
